# Test results taken from paper PMC11557314, “Structure–function relationship of dynorphin B variants using naturally occurring amino acid substitutions” (Frontiers in Pharmacology, 2024).
# Sequences of proteins named here, by UniProt entry; tags and fusion partners are left off. A change or cut given only in a name is not applied to a line headed by its entry.
# UniProt P41145: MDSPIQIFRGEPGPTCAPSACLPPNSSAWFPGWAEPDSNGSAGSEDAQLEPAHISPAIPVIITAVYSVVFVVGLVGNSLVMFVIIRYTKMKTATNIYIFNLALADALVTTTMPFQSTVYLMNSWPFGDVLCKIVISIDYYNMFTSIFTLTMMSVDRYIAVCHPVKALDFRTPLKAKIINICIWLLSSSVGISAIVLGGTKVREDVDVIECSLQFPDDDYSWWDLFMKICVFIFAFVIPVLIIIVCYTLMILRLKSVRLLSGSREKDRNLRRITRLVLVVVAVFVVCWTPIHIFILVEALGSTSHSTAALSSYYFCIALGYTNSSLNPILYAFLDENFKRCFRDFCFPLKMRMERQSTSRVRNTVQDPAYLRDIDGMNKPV
# UniProt P35372, whole entry: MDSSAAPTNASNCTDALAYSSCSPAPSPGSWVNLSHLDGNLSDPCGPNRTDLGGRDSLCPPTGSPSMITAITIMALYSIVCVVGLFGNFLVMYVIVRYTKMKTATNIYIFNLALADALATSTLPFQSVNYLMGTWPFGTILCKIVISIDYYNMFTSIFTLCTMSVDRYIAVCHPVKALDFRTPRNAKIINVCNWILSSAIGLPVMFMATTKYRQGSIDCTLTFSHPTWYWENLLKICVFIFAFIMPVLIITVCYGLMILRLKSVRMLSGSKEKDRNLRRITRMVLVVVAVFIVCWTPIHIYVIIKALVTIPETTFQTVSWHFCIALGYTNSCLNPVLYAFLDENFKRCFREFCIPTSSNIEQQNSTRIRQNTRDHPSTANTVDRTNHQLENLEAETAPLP
# UniProt P41143, whole entry: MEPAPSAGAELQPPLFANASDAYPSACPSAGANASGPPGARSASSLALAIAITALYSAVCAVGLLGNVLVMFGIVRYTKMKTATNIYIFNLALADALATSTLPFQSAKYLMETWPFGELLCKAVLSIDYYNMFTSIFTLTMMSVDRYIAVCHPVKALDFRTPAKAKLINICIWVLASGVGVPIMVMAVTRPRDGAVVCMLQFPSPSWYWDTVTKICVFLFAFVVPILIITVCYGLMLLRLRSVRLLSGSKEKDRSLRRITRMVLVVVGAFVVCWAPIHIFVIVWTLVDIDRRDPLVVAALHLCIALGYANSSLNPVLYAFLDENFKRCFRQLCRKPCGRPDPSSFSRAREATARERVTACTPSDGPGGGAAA
# Like-named read-outs stand apart in the source and are kept apart here. Where no end group is shown, it is not given here.
# What was measured:
# hKOPr [1] = molecular target: T1, hKOPr (Homo sapiens, UniProt P41145); assay: biochemical
# hKOPr [2] = molecular target: T1, hKOPr; assay: cell-based; details: HEK293, read-out: β-Arrestin recruitment, efficacy at hKOPr Emax
# hMOPr [3] = molecular target: T2, hMOPr (Homo sapiens, UniProt P35372); assay: Competitive radio binding assay with [3H]-DAMGO on hMOPr-CHO cell membranes
# hKOPr [4] = molecular target: T1, hKOPr; assay: biochemical; assay type: binding
# hMOPr [5] = molecular target: T2, hMOPr; assay: biochemical
# hDOPr = hDOPr (Homo sapiens, UniProt P41143); assay: Competitive radio binding assay with [3H]-diprenorphine on hDOPr-CHO cell membranes; details: read-out: Ki hDOPr; [3H]-diprenorphine 1 nM, 60 min 25°C; mean ± SEM
# [6] = read-out: Ki hMOPr, [3H]-DAMGO 1 nM, 60 min 25°C, mean ± SEM
# [7] = read-out: Potency at hKOPr EC50
Compound,Emax (hKOPr [1]; read-out: Efficacy at hKOPr Emax),Emax (hKOPr [2]),Ki (hMOPr [3]),EC50 (hKOPr [1]),Ki (hKOPr [4]),EC50 (hMOPr [5]),"hMOPr % stim, stimulation of [35S]GTPγS binding (hMOPr [5])",Ki (hMOPr [3]; [6]),EC50 (hKOPr [1]; [7]),Selectivity DOPr/KOPr (hKOPr [4]),Selectivity MOPr/KOPr (hKOPr [4]),Ki (hKOPr [4]; read-out: Ki hKOPr),Ki (hDOPr)
"CC[C@H](C)[C@H](NC(=O)[C@H](CCCNC(=N)N)NC(=O)[C@H](CCCNC(=N)N)NC(=O)[C@H](CC(C)C)NC(=O)[C@H](Cc1ccccc1)NC(=O)CNC(=O)CNC(=O)[C@@H](N)Cc1ccc(O)cc1)C(=O)N[C@@H](CCCNC(=N)N)C(=O)N1CCC[C@H]1C(=O)N[C@@H](CCCCN)C(=O)N[C@@H](CC(C)C)C(=O)N[C@@H](CCCCN)C(=O)N[C@@H](Cc1c[nH]c2ccccc12)C(=O)N[C@@H](CC(=O)O)C(=O)N[C@@H](CC(N)=O)C(=O)N[C@@H](CCC(N)=O)C(=O)O [DynA_WT, dynorphin A, reference compound]",100%,100%,,,,,,,,,,,
"CC(C)C[C@H](NC(=O)[C@H](Cc1ccccc1)NC(=O)CNC(=O)CNC(=O)[C@@H](N)Cc1ccc(O)cc1)C(=O)N[C@@H](CCCNC(=N)N)C(=O)N[C@@H](CCCNC(=N)N)C(=O)N[C@@H](CCC(N)=O)C(=O)N[C@@H](Cc1ccccc1)C(=O)N[C@@H](CCCCN)C(=O)N[C@H](C(=O)N[C@H](C(=O)N[C@H](C(=O)O)[C@@H](C)O)C(C)C)C(C)C [DynB_WT, dynorphin B]",,,11.6 ± 2.6 nM,5.1 ± 0.61 nM,0.72 nM,31.4 ± 10 nM,103 ± 0.0%,,,,,,
YGGFLRRAFKVVT [DynB_Q8A],,,,,,,,21.9 ± 5.9 nM,3.67 ± 0.52 nM,147,14,1.56 nM,230 ± 30.3 nM
YGGFLRRQFAVVT [DynB_K10 A],,,,,,,,12.6 ± 3.5 nM,9.79 ± 0.92 nM,82,10,1.25 nM,103 ± 14.2 nM
